In ChEMBL document CHEMBL4732230, “Design, synthesis, and biological evaluation of 4-benzoylamino-1H-pyrazole-3-carboxamide derivatives as potent CDK2 inhibitors” (Eur J Med Chem, 2021):

Experiments:
[1] = species: Homo sapiens; assay: Selectivity index, ratio of IC50 for CDK6/cyclin D3 (unknown origin) to IC50 for CDK2/cyclin A2 (unknown origin)
[2] = species: Homo sapiens; assay: Selectivity index, ratio of IC50 for CDK1/cyclin B1 (unknown origin) to IC50 for CDK2/cyclin A2 (unknown origin)
[3] = species: Homo sapiens; assay: Selectivity index, ratio of IC50 for CDK3/cyclin E1 (unknown origin) to IC50 for CDK2/cyclin A2 (unknown origin)
[4] = species: Homo sapiens; assay: Selectivity index, ratio of IC50 for CDK4/cyclin D3 (unknown origin) to IC50 for CDK2/cyclin A2 (unknown origin)
[5] = species: Homo sapiens; assay: Selectivity index, ratio of IC50 for CDK7/cyclin H/MAT1 (unknown origin) to IC50 for CDK2/cyclin A2 (unknown origin)
[6] = species: Homo sapiens; assay: Selectivity index, ratio of IC50 for CDK9/cyclin T1 (unknown origin) to IC50 for CDK2/cyclin A2 (unknown origin)
[7] = species: Homo sapiens; assay: Selectivity index, ratio of IC50 for CDK12/cyclin K (unknown origin) to IC50 for CDK2/cyclin A2 (unknown origin)

SMILES | Ratio IC50 [1] | Ratio IC50 [2] | Ratio IC50 [3] | Ratio IC50 [4] | Ratio IC50 [5] | Ratio IC50 [6] | Ratio IC50 [7]
NC(=O)c1ccc(-c2ccc(F)c(C(=O)Nc3c[nH]nc3C(=O)Nc3ccc(F)cc3)c2F)cn1 | > 10 | 17 | 2 | > 10 | > 10 | > 10 | > 10
NC(=O)c1cccc(-c2ccc(F)c(C(=O)Nc3c[nH]nc3C(=O)Nc3ccc(F)cc3)c2F)c1 | – | 8 | – | – | – | – | –
